This is an account of results in US9321756B2, “Azole compounds as PIM inhibitors” (priority 2011, dated 2016).

Chains of the proteins cited; added tags and fusions are not shown. Lines headed by an entry give the natural chain unless they say otherwise; changes in a name come on top.
UniProt P11309, whole entry: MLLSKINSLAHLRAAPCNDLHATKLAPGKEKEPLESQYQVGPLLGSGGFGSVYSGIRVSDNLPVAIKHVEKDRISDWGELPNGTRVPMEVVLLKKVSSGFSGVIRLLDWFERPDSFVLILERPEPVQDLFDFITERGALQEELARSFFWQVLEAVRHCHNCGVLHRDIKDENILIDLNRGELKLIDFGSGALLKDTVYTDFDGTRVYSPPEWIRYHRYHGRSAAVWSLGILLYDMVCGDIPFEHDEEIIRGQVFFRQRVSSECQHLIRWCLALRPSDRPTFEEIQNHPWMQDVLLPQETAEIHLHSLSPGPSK
UniProt Q9P1W9: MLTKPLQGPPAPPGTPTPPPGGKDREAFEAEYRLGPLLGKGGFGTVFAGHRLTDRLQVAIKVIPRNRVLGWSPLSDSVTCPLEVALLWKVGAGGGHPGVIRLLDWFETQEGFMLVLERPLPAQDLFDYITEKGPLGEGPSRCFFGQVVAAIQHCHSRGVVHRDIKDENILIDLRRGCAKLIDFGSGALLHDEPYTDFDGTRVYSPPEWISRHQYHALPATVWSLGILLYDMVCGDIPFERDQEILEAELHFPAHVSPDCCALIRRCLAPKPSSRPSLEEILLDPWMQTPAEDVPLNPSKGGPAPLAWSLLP

The first test deals with full length recombinant Pim-1 (Homo sapiens (Human), UniProt P11309). Briefly: Pim enzyme assay (HTRF, phosphorylation of biotinylated-BAD (S112) peptide), Pim-1. The format is biochemical. Particulars: Pim-1 enzyme assay; read-out: Pim_1_IC50.
For the molecule `Cc1nc(-c2c[nH]c3ccc(-c4nnc(N)s4)cc23)ccc1F` [Example 191, 5-(3-(5-fluoro-6-methyl-2-pyridinyl)-1H-indol-5-yl)-1,3,4-thiadiazol-2-amine], the IC50 is 792 nM.

On to `CC(C)Nc1cncc(-c2c[nH]c3ccc(-c4nnc(N)s4)cc23)n1` [Example 206, 6-(5-(5-amino-1,3,4-thiadiazol-2-yl)-1H-indol-3-yl)-N-(1-methylethyl)-2-pyrazinamine], for which the IC50 was found to be 1.75 nM.

The next test has as its target full length recombinant Pim-3 (Homo sapiens (Human), UniProt Q86V86). Briefly: Pim enzyme assay (HTRF, phosphorylation of biotinylated-BAD (S112) peptide), Pim-3. The format is biochemical. Particulars: Pim-3 enzyme assay; read-out: Pim3 IC50.
Consider `CNc1nnc(-c2ccc3[nH]cc(-c4cccc(OC(C)C)n4)c3c2)o1` [Example 41, 5-(3-(6-isopropoxypyridin-2-yl)-1H-indol-5-yl)-N-methyl-1,3,4-oxadiazol-2-amine], for which the IC50 is 2.26 nM.

As for `Nc1nnc(-c2ccc3[nH]cc(-c4cc(C(F)(F)F)ncn4)c3c2)o1` [Example 95, 5-(3-(6-(trifluoromethyl)-4-pyrimidinyl)-1H-indol-5-yl)-1,3,4-oxadiazol-2-amine], the IC50 is 116 nM.

On to `Nc1nnc(-c2ccc3[nH]cc(-c4cncc(-c5ccc(Cl)cc5)n4)c3c2)o1` [Example 114, 5-(3-(6-(4-chlorophenyl)-2-pyrazinyl)-1H-indol-5-yl)-1,3,4-oxadiazol-2-amine], for which the IC50 stood at 7.02 nM.

With `CC(C)Cn1cc(-c2c[nH]c3ccc(-c4nnc(N)o4)nc23)cn1` [Example 127, 5-(3-(1-(2-methylpropyl)-1H-pyrazol-4-yl)-1H-pyrrolo[3,2-b]pyridin-5-yl)-1,3,4-oxadiazol-2-amine], the IC50 stood at 309 nM.

Turning to `CC(C)Oc1cccc(-c2c[nH]c3ccc(-c4nnc(N)s4)cc23)n1` [Example 157, 5-(3-(6-(1-methylethoxy)-2-pyridinyl)-1H-indol-5-yl)-1,3,4-thiadiazol-2-amine], the IC50 came out at 1.58 nM.

In the case of `Nc1nnc(-c2ccc3[nH]cc(-c4cccc(N5CCCCC5)n4)c3c2)s1` [Example 172, 5-(3-(6-(1-piperidinyl)-2-pyridinyl)-1H-indol-5-yl)-1,3,4-thiadiazol-2-amine], the IC50 is 13.9 nM.

As for `Nc1nnc(-c2ccc3[nH]cc(-c4cccc(OC5CCCCC5)n4)c3c2)s1` [Example 173, 5-(3-(6-(cyclohexyloxy)-2-pyridinyl)-1H-indol-5-yl)-1,3,4-thiadiazol-2-amine], the IC50 was determined as 17.8 nM.

Turning to `CCN(C)c1cnc(-c2c[nH]c3ccc(-c4nnc(N)s4)cc23)cn1` [Example 188, 5-(5-(5-amino-1,3,4-thiadiazol-2-yl)-1H-indol-3-yl)-N-ethyl-N-methyl-2-pyrazinamine], the IC50 was 126 nM.

Take `Nc1nnc(-c2ccc3[nH]cc(-c4cncc(NC5CCCCC5)n4)c3c2)s1` [Example 208, 6-(5-(5-amino-1,3,4-thiadiazol-2-yl)-1H-indol-3-yl)-N-cyclohexyl-2-pyrazinamine]: the IC50 turned out to be 1.99 nM.

Regarding `c1cc2[nH]cc(-c3cncc(C4CC4)n3)c2cc1-c1nnc(N2CCOCC2)o1` [Example 245, 3-(6-cyclopropyl-2-pyrazinyl)-5-(5-(4-morpholinyl)-1,3,4-oxadiazol-2-yl)-1H-indole], the IC50 was determined as 7.94 nM.

The target in another test is full length recombinant Pim-2 (Homo sapiens (Human), UniProt Q9P1W9). The test is described as follows: Pim enzyme assay (HTRF, phosphorylation of biotinylated-BAD (S112) peptide), Pim-2. It is filed as biochemical. Particulars: Pim-2 enzyme assay; read-out: Pim2_IC50.
For the molecule `Nc1nnc(-c2ccc3[nH]cc(-c4cncc(N5CCC(F)(F)CC5)n4)c3c2)o1` [Example 2, 5-(3-(6-(4,4-difluoropiperidin-1-yl)pyrazin-2-yl)-1H-indol-5-yl)-1,3,4-oxadiazol-2-amine], the IC50 is 2.26 nM.

For the molecule `Oc1nnc(-c2ccc3[nH]cc(-c4cccc(N5CCOCC5)n4)c3c2)s1` [Example 29, 5-(3-(6-morpholinopyridin-2-yl)-1H-indol-5-yl)-1,3,4-thiadiazol-2-ol], the IC50 was 254 nM.

`CC(C)Nc1nnc(-c2ccc3[nH]cc(-c4nc(C(N)=O)cc(C5CC5)n4)c3c2)o1` [Example 48, 6-cyclopropyl-2-(5-(5-(isopropylamino)-1,3,4-oxadiazol-2-yl)-1H-indol-3-yl)pyrimidine-4-carboxamide]: the IC50 was determined as 2.96 nM.

For `CNc1nc(-c2ccc3[nH]cc(-c4cncc(OC(C)C)n4)c3c2)no1` [Example 72, 3-(3-(6-isopropoxypyrazin-2-yl)-1H-indol-5-yl)-N-methyl-1,2,4-oxadiazol-5-amine], the IC50 is 242 nM.

As to `Nc1nnc(-c2ccc3[nH]cc(-c4nccc(-c5ccccc5F)n4)c3c2)o1` [Example 123, 5-(3-(4-(2-fluorophenyl)-2-pyrimidinyl)-1H-indol-5-yl)-1,3,4-oxadiazol-2-amine], the IC50 was found to be 7 nM.

With `CC(C)Cn1cc(-c2c[nH]c3ccc(-c4nnc(N)o4)nc23)cn1` [Example 127, 5-(3-(1-(2-methylpropyl)-1H-pyrazol-4-yl)-1H-pyrrolo[3,2-b]pyridin-5-yl)-1,3,4-oxadiazol-2-amine], the IC50 amounted to 289 nM.

Consider `Nc1nnc(-c2ccc3[nH]cc(-c4cccc(OC5CCC5)n4)c3c2)s1` [Example 161, 5-(3-(6-(cyclobutyloxy)-2-pyridinyl)-1H-indol-5-yl)-1,3,4-thiadiazol-2-amine], for which the IC50 was 16.8 nM.

As for `Nc1nnc(-c2ccc3[nH]cc(-c4cccc(OC5CCCC5)n4)c3c2)s1` [Example 163, 5-(3-(6-(cyclopentyloxy)-2-pyridinyl)-1H-indol-5-yl)-1,3,4-thiadiazol-2-amine], the IC50 was 40.8 nM.

Regarding `Cc1nc(-c2c[nH]c3ccc(-c4nnc(N)s4)cc23)ccc1F` [Example 191, 5-(3-(5-fluoro-6-methyl-2-pyridinyl)-1H-indol-5-yl)-1,3,4-thiadiazol-2-amine], the IC50 is 822 nM.

As for `CNc1nnc(-c2ccc3[nH]cc(-c4csc(-n5cnc(C)c5)n4)c3c2)s1` [Example 233, N-methyl-5-(3-(2-(4-methyl-1H-imidazol-1-yl)-1,3-thiazol-4-yl)-1H-indol-5-yl)-1,3,4-thiadiazol-2-amine], the IC50 was found to be 502 nM.

On to `c1cc2[nH]cc(-c3cncc(C4CC4)n3)c2cc1-c1nnc(N2CCOCC2)o1` [Example 245, 3-(6-cyclopropyl-2-pyrazinyl)-5-(5-(4-morpholinyl)-1,3,4-oxadiazol-2-yl)-1H-indole], for which the IC50 was found to be 35.8 nM.

Turning to `c1cc(C2CC2)nc(-c2c[nH]c3ccc(-c4nnc(NC5COC5)o4)cc23)n1` [Example 256, 5-(3-(4-cyclopropyl-2-pyrimidinyl)-1H-indol-5-yl)-N-3-oxetanyl-1,3,4-oxadiazol-2-amine], the IC50 was 3.2 nM.
